The subject of this test is C3H10T½ cells. It is filed as cell-based, murine.

Turning to BMP-2, the “Type X collagen expression” value was “induces differentiation into mature chondrocytes and expression of type X collagen”; the “Type X collagen synthesis” value is reported as “fails to induce synthesis of type X collagen”.
